The values below are quoted from earlier work in PMC3554599, “Hydrophobic analogues of rhodamine B and rhodamine 101: potent fluorescent probes of mitochondria in living C. elegans” (Beilstein Journal of Organic Chemistry, 2012).

The subject of the series is C. elegans. Particulars: stated for comparison, no reference given; cited from earlier work.

sodium azide: the “concentration that rapidly causes paralysis and eventually death” value was 25000 to 50000 µM.
